Source: patent US20240390467A1, “PROHEMOSTATIC PROTEINS FOR THE TREATMENT OF BLEEDING” (Academisch Ziekenhuis Leiden, priority 2014, published 2024)

How the values were obtained:
[1] = system: thrombin generation in FX-depleted plasma; assay: Tissue factor (TF)-initiated thrombin generation in FX-depleted plasma; format: biochemical, human
Description: (§1) Thrombin generation assays: Thrombin generation was adapted from protocols earlier described (Hemker et al., 2003). Briefly, thrombin generation curves were obtained by supplementing FX-depleted plasma with Tissue Factor (TF, 2 or 20 pM final), Corn Trypsin Inhibitor (70 μg/ml), PCPS (20 μM) and 1 Unit (prothrombin time-specific clotting activity) of r-hFX (7 μg/ml) or chimeric FX-C (16 μg/ml). Thrombin formation was initiated by adding Substrate buffer (Fluca) to the plasma. FXa thrombin generation curves were obtained by supplementing FX-depleted plasma with Corn Trypsin Inhibitor (70 μg/ml), assay buffer and PCPS (20 μM). Thrombin formation was initiated by addition of FXa premixed with Rivaroxaban or Apixaban, assay buffer without calcium and supplemented with Fluca. The final reaction volume was 120 μl, of which 64 μl was FX-depleted plasma. Thrombin formation was determined every 20 seconds for 30 minutes and corrected for the calibrator, using the software of Thrombinoscope. The lag time, mean endogenous thrombin potential (the area under the thrombin generation curve), time to peak and peak thrombin generation, was calculated from at least three individual experiments.

[2] = system: clotting of plasma, normal human plasma as reference; assay: Prothrombin time-based clotting assay; format: biochemical
Description: FIGS. 13A and 13B: Tissue factor (TF)-initiated TG profile for r-hFX and c-FX-C. FIG. 13A: Plasma TG at low TF (2 pM) in the absence and presence of 2 μM DOAC Apixaban (Apixa) by 1 unit r-hFX, r-hFX plus Apixaban, c-FXa-C or c-FXa-C plus Apixaban. One unit of r-hFX (7 μg/ml) or c-FXa-C (16 μg/ml) was defined by a prothrombin time-based clotting assay using normal human plasma as reference. Curves represent the average of at least three independent experiments. FIG. 13B: Plasma TG at high TF (20 pM).
as §1, with “FXa thrombin generation curves were obtained by supplementing FX-depleted plasma with Corn Trypsin Inhibitor (70 μg/ml), assay buffer and PCPS (20 μM). Thrombin formation was initiated by addition of FXa premixed with Rivaroxaban or Apixaban, assay buffer without calcium and supplemented with Fluca. The final reaction volume was 120 μl, of which 64 μl was FX-depleted plasma.” left out

[3] = Edoxaban control (none), low TF 2 pM
[4] = High TF (20 pM), + Apixaban (2 μM)
[5] = Low TF (2 pM), + Apixaban (2 μM)

## r-hFX: recombinant normal human FX expressed in HEK293 cells
[1]; Edoxaban 50 nM, low TF 2 pM
  ETP remaining: 99.3%
  Lagtime: 247 s
  Peak height %: 41.2%
  Time to peak: 618 s
[1]; Edoxaban 100 nM, low TF 2 pM
  ETP remaining: 87.1%
  Lagtime: 297 s
  Peak height %: 30.8%
  Time to peak: 756 s
[1]; Edoxaban 200 nM, low TF 2 pM
  ETP remaining: no ETP
  Lagtime: 397 s
  Peak height %: 23.1%
  Time to peak: 1290 s
[1]; Edoxaban 400 nM, low TF 2 pM
  ETP remaining: no ETP
  Lagtime: 538 s
  Peak height %: 15.9%
  Time to peak: 1890 s
[1]; Edoxaban 600 nM, low TF 2 pM
  ETP remaining: no ETP
  Lagtime: 679 s
  Peak height %: 13.0%
  Time to peak: 1932 s
[1]; Edoxaban 1000 nM, low TF 2 pM
  ETP remaining: no ETP
  Lagtime: 874 s
  Peak height %: 10.1%
  Time to peak: 2472 s
[1]; Edoxaban 2000 nM, low TF 2 pM
  ETP remaining: no ETP
  Lagtime: 1180 s
  Peak height %: 7.1%
  Time to peak: 2562 s
[1]; [3]
  ETP remaining: 100.%
  Lagtime: 115 s
  Peak height %: 100.%
  Time to peak: 265 s
[1]; [4]
  ETP: 694 ± 67 nM
  Lagtime: 138 ± 12 s
  Peak thrombin: 32 ± 4 nM
  Time to peak: 804 ± 36 s
[1]; High TF (20 pM), no Apixaban
  ETP: 973 ± 18 nM
  Lagtime: 48 ± 1 s
  Peak thrombin: 338 ± 8 nM
  Time to peak: 114 ± 6 s
[1]; [5]
  ETP: no ETP
  Lagtime: 696 ± 162 s
  Peak thrombin: 8 ± 4 nM
  Time to peak: no peak
[1]; Low TF (2 pM), no Apixaban
  ETP: 567 ± 61 nM
  Lagtime: 132 ± 5 s
  Peak thrombin: 61 ± 4 nM
  Time to peak: 324 ± 6 s
[2]
  concentration equal to 1 Unit (prothrombin time-specific clotting activity): 7 µg/mL
